Amino acid sequences for entries named in this document (tags omitted). Residues count along the entry.
UniProt P43220, 24-463, species assumed: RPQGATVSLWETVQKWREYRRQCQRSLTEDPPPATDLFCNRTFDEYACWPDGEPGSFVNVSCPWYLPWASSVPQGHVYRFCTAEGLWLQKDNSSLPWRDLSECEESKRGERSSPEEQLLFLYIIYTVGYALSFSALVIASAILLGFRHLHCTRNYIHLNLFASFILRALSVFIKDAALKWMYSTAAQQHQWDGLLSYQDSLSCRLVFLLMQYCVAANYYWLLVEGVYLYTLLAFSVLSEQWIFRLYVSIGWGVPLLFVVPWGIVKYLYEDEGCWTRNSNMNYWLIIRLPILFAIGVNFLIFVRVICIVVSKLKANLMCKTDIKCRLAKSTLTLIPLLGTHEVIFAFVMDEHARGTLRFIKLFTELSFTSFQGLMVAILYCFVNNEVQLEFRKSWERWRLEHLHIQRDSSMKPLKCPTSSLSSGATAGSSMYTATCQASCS
UniProt P47871, 26-477: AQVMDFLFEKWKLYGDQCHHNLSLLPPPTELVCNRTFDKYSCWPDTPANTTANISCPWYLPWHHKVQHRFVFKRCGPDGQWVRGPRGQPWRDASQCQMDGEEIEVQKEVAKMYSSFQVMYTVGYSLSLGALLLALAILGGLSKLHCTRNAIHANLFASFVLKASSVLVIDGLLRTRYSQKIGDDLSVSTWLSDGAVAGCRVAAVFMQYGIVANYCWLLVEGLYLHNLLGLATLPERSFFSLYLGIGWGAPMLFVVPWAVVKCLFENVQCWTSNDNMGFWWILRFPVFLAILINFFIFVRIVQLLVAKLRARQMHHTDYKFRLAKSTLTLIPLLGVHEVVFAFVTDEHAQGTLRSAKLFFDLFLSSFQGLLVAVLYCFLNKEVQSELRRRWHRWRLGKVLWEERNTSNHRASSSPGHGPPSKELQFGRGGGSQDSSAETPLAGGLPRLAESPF

According to patent US8969294B2 (Istituto di Recerche di Biologia Molecolare P. Angeletti …, priority 2008, dated 2015):

Columns and labels:
[1] = molecular target: GLP-1 receptor (Homo sapiens, UniProt P43220); assay: Functional assay, cAMP synthesis: luciferase reporter in HEK293 cells co-transfected with GLP-1 receptor
[2] = molecular target: glucagon receptor (Homo sapiens, UniProt P47871); assay: Functional assay, cAMP synthesis: luciferase reporter in HEK293 cells co-transfected with glucagon receptor

Compound | EC50 [1] [nM] | EC50 [2] [nM]
CCCCCCCCCCCCCCCC(=O)N[C@@H](CCC(=O)N[C@@H](CCC(=O)NCCCC[C@H](NC(=O)[C@H](CC(N)=O)NC(=O)[C@H](CCSC)NC(=O)[C@H](CC(C)C)NC(=O)[C@H](Cc1c[nH]c2ccccc12)NC(=O)[C@H](CCC(N)=O)NC(=O)[C@@H](NC(=O)[C@H](Cc1ccccc1)NC(=O)[C@H](CC(=O)O)NC(=O)[C@@H]1CCCCNC(=O)CC[C@H](NC(=O)[C@H](CC(=O)O)NC(=O)[C@H](CC(C)C)NC(=O)[C@H](Cc2ccc(O)cc2)NC(=O)[C@H](CCCCN)NC(=O)[C@H](CO)NC(=O)[C@H](Cc2ccc(O)cc2)NC(=O)[C@H](CC(=O)O)NC(=O)[C@H](CO)NC(=O)[C@@H](NC(=O)[C@H](Cc2ccccc2)NC(=O)[C@@H](NC(=O)CNC(=O)[C@H](CCC(N)=O)NC(=O)[C@H](CO)NC(=O)C(C)(C)c2c[nH]cn2)[C@@H](C)O)[C@@H](C)O)C(=O)N[C@@H](CCCNC(=N)N)C(=O)N[C@@H](CCCNC(=N)N)C(=O)N[C@@H](C)C(=O)N1)C(C)C)C(N)=O)C(=O)O)C(=O)O [compound 654] | 0.07 | 0.025
CCCCCCCCCCCCCCCC(=O)N[C@@H](CCC(=O)NCCCC[C@H](NC(=O)[C@H](CC(N)=O)NC(=O)[C@H](CCSC)NC(=O)[C@H](CC(C)C)NC(=O)[C@H](Cc1c[nH]c2ccccc12)NC(=O)[C@H](CCC(N)=O)NC(=O)[C@@H](NC(=O)[C@H](Cc1ccccc1)NC(=O)[C@H](CC(=O)O)NC(=O)[C@@H]1CCCCNC(=O)CC[C@H](NC(=O)[C@H](CC(=O)O)NC(=O)[C@H](CC(C)C)NC(=O)[C@H](Cc2ccc(O)cc2)NC(=O)[C@H](CCCCN)NC(=O)[C@H](CO)NC(=O)[C@H](Cc2ccc(O)cc2)NC(=O)[C@H](CC(=O)O)NC(=O)[C@H](CO)NC(=O)[C@@H](NC(=O)[C@H](Cc2ccccc2)NC(=O)[C@@H](NC(=O)CNC(=O)[C@H](CCC(N)=O)NC(=O)[C@H](CO)NC(=O)C(C)(C)c2c[nH]cn2)[C@@H](C)O)[C@@H](C)O)C(=O)N[C@@H](CCCNC(=N)N)C(=O)N[C@@H](CCCNC(=N)N)C(=O)N[C@@H](C)C(=O)N1)C(C)C)C(N)=O)C(=O)O [compound 653] | 0.075 | 0.107
